# Several values for one entry are separate records, joined by “and”; a condition that tells them apart may be missing. Equal entries are not always repeated. Only a part is listed here, and it is no random draw. Records with an inconclusive call do not appear. The source holds several records for some structures; these can differ, active in one and inactive in another. Activity calls are given as the source filed them. How the source made its calls, unless noted: active means hit-call score of the fitted dose curve at least 0.9, where 1 is the maximum; inconclusive means response in the unintended direction; inactive means score below 0.9.
# Amino acid sequences for entries named in this document (tags omitted). A change or cut given only in a name is not applied to a line headed by its entry.
# UniProt P22303: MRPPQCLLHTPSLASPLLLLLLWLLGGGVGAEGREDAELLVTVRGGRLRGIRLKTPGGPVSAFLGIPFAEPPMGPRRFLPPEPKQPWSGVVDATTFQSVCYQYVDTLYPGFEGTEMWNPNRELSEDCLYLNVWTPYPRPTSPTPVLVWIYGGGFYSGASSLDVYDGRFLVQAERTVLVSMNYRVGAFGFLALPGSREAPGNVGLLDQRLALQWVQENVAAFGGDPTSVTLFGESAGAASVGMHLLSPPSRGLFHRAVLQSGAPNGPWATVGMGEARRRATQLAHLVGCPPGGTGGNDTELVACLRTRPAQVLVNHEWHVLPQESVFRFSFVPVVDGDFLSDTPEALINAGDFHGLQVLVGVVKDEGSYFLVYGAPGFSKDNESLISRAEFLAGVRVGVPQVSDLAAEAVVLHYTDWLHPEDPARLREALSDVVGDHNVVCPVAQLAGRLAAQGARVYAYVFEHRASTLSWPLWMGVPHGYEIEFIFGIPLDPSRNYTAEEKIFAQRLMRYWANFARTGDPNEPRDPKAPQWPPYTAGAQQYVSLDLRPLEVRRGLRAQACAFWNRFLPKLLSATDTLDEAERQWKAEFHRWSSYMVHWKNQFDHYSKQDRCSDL
# UniProt P15207: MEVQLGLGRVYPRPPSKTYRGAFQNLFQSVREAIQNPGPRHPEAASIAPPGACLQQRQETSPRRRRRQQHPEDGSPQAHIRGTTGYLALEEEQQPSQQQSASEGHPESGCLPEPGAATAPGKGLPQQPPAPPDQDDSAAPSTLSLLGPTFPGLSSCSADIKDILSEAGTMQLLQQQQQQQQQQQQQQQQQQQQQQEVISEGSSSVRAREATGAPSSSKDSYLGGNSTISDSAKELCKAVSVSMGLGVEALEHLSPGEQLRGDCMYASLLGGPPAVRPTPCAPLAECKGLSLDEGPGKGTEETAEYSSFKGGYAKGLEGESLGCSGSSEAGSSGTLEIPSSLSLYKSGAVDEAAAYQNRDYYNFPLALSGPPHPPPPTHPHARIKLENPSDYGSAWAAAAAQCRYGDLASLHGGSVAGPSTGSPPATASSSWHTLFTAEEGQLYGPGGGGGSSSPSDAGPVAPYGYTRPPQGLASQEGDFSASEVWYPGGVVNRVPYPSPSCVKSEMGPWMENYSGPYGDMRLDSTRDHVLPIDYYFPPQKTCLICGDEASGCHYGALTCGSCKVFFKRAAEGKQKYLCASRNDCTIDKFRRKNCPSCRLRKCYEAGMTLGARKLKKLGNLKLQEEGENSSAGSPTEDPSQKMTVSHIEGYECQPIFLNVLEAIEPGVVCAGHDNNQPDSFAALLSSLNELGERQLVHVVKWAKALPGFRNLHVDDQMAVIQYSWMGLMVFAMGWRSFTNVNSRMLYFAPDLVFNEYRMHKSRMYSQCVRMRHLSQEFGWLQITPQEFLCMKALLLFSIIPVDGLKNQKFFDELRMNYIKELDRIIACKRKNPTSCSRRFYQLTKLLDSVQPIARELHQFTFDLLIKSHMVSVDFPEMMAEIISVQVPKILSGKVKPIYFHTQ
# UniProt Q01827, whole entry, looked up: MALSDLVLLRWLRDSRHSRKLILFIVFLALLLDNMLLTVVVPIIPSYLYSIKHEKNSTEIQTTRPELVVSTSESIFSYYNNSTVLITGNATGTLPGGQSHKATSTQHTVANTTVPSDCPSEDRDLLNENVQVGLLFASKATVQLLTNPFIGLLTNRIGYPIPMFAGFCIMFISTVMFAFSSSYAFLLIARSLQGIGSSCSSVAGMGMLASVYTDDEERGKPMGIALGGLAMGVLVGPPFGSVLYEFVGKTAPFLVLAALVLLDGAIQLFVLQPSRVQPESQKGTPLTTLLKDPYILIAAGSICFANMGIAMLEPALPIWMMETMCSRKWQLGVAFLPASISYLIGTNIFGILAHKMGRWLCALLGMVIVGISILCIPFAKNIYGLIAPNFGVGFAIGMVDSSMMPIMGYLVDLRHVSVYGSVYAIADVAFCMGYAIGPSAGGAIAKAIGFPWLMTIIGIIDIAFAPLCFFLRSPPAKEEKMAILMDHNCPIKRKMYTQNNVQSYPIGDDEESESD
# UniProt P10275: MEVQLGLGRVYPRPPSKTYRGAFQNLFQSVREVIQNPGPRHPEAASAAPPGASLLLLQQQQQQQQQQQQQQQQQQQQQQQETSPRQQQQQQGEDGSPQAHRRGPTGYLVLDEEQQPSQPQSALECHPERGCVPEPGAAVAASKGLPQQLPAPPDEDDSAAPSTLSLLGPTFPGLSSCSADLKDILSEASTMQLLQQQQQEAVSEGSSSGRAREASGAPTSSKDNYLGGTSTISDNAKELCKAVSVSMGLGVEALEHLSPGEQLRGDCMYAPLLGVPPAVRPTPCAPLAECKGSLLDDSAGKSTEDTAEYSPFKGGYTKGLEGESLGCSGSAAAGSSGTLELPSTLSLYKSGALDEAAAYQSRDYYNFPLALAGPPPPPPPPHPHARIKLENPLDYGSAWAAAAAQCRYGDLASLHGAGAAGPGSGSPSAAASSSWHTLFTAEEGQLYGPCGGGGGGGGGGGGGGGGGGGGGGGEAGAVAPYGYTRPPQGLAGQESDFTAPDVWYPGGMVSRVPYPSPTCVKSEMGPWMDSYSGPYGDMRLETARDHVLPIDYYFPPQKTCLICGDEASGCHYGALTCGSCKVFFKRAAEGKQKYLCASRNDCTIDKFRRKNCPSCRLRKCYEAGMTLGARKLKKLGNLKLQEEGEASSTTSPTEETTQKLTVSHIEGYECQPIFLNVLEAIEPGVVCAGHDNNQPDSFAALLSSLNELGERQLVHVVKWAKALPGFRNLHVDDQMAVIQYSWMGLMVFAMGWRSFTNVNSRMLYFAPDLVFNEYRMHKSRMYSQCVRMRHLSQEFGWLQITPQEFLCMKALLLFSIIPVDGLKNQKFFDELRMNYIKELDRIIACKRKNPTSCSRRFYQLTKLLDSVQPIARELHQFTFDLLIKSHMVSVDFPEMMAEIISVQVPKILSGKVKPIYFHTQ
# UniProt P10827: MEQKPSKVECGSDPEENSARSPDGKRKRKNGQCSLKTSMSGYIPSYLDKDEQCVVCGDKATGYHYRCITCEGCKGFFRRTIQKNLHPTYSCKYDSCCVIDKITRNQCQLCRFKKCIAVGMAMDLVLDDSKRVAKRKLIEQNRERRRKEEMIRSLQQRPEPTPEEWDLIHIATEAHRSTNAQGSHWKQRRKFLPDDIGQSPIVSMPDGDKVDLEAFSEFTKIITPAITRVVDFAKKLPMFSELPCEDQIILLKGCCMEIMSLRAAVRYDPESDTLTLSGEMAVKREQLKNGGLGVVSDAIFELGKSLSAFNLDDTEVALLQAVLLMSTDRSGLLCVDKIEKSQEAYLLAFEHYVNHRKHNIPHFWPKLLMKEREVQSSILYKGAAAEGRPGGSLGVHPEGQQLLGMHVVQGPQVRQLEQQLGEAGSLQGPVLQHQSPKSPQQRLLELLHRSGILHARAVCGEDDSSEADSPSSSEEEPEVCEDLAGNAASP
# UniProt P10828: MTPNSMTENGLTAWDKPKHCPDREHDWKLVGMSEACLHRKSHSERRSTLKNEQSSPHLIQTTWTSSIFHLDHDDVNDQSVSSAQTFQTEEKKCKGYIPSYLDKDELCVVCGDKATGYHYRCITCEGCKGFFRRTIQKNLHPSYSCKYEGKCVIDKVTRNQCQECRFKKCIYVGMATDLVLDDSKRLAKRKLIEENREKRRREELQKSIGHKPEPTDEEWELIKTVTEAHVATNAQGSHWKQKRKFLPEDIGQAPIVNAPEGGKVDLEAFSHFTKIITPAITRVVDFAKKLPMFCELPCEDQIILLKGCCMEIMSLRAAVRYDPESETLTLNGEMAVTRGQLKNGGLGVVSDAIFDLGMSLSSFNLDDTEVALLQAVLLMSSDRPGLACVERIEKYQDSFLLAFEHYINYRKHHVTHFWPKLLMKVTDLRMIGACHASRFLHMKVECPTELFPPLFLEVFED
# Columns and labels:
# [1] = molecular target: human Acetylcholinesterase (AChE), ACHE (gene 43) (UniProt P22303); assay: NVS_ENZ_hAChE: NovaScreen (NVS) Enzymatic Assay for human Acetylcholinesterase (AChE) (AID 2283129)
# Description: NVS_ENZ_hAChE is a biochemical, single-readout assay that uses extracted gene-proteins in a cell-free assay. Measurements were taken 0.33 hour after chemical dosing in a 96-well plate.NVS_ENZ_hAChE is one of one assay component(s) measured or calculated from the NVS_ENZ_hAChE assay. It is designed to make measurements of enzyme activity, a form of enzyme reporter, as detected with absorbance signals by Colorimetric technology.Data from the assay component NVS_ENZ_hAChE was analyzed into 1 assay endpoint. This assay endpoint, NVS_ENZ_hAChE, was analyzed in the positive analysis fitting direction relative to DMSO as the negative control and baseline of activity. […] Furthermore, this assay endpoint can be referred to as a primary readout, because this assay has produced multiple assay endpoints where this one serves a enzymatic activity function. […]
# Binding assays used specific radioligands (tritiated, iodinated) with non-radioactive competitive displacement ligands in agonist or antagonist protocols (as indicated) and various reference compounds and inhibitors to titrate specific binding to receptors and transporters. Most enzyme assays (CYPs, kinases, phosphatases, proteases, HDACs) used recombinant protein and specific substrates (fluorescence mostly, some colorimetric and radioactive) and inhibitors, followed by a biochemical separation of substrate and product. […]
# [2] = molecular target: rat Androgen Receptor (AR), Ar (gene 24208) (UniProt P15207); assay: NVS_NR_rAR: NovaScreen (NVS) Nuclear Receptor Binding Assay for rat Androgen Receptor (AR) (AID 2283366)
# [3] = molecular target: Norway rat Vesicular Monoamine Transporter (VMAT2), neurotransmitter transporter, Slc18a2 (gene 25549) (UniProt Q01827); assay: NVS_TR_rVMAT2: NovaScreen (NVS) Transporter Assay for Norway rat Vesicular Monoamine Transporter (VMAT2), neurotransmitter transporter (AID 2283376);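 further: actives lower the bound radioligand signal below the DMSO level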
# In short: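 Rat forebrain tissue preparation used in a cell-free radioligand binding format; displacement read by filter-based scintillation counting 1 hour after dosing. Primary screen in duplicate at 25 uM, actives then run in concentration series; loss of signal versus DMSO baseline.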
# AR (gene 367) = AR (gene 367) (UniProt P10275); assay: ACEA_AR_agonist_80hr: ACEA Biosciences xCELLigence Real-Time Cell Analysis on Androgen Receptor Agonism for Proliferation (AID 2283783);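 further: hits increase impedance growth signal above DMSO baseline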
# In short: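 22Rv1 human prostate cancer cells were seeded after preconditioning in assay medium and monitored overnight, then dosed in an eight-point 1:4 dilution series from 100 uM (≤0.5% DMSO). Impedance-based growth was read at 80 h, gain-of-signal versus DMSO.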
# [4] = molecular target: Thyroid hormone receptor alpha (Rattus norvegicus) + Thyroid hormone receptor beta (Rattus norvegicus) (UniProt P18113+P63059); assay: TOX21_TR_LUC_GH3_Agonist_Followup: Tox21 GH3 Thyroid Hormone Receptor Agonism Luciferase Follow-Up Assay (AID 2283939)
# In short: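 Rat GH3 cells (1,500/well) in serum-free assay medium, treated with 15-point series, 92 uM to 5 nM final, for 24 h at 37C. Luciferase via ONE-Glo luminescence; gain of signal fitted against DMSO, T3 positive control.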
# THRA (gene 7067) = THRA (gene 7067) (UniProt P10827); assay: TOX21_TRA_COA_Agonist_Followup_ratio: Tox21 Thyroid Hormone Receptor alpha Agonism through Coactivator Recruitment Follow-Up Assay, Ratio (AID 2283948; active means hit-call score of the fitted dose curve at least 0.9, where 1 is the maximum; inactive means score below 0.9)
# In short: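 GST-TRa LBD 2.5 nM + 0.10% BSA + cpd; add fluorescein-SRC-2 200 nM, Tb-anti-GST 2 nM. TR-FRET ex 340, em 520/495 ratio. Norm: DMSO 0%, T3 100%; gain-of-signal fit.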
# THRB (gene 7068) [5] = molecular target: THRB (gene 7068) (UniProt P10828); assay: TOX21_TRB_BLA_Agonist_Followup_ratio: Tox21 Thyroid Hormone Receptor beta Agonism Beta-lactamase (BLA) Follow-Up Assay, Ratio (AID 2283954)
# In short: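 Human TRβ LBD–GAL4 DBD fusion in GeneBLAzer UAS-bla HEK293T cells; 11 concentrations in triplicate, 18 h at 37°C/5% CO2, T3 as agonist control. CCF4-AM substrate 2 h at room temperature; 460:530 nm ratio fitted for gain of signal versus DMSO.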
# THRB (gene 7068) [6] = molecular target: THRB (gene 7068) (UniProt P10828); assay: TOX21_TRB_COA_Agonist_Followup_ratio: Tox21 Thyroid Hormone Receptor beta Agonism through Coactivator Recruitment Follow-Up Assay, Ratio (AID 2283963; active means hit-call score of the fitted dose curve at least 0.9, where 1 is the maximum; inactive means score below 0.9)
# In short: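 First, the GST-fused TRβ ligand-binding domain (5.0 nM) was incubated with test compound in 0.10% BSA. Next, fluorescein-tagged SRC-2 peptide (200 nM) and terbium anti-GST antibody (2 nM) were added. Finally, TR-FRET emission ratios were normalized against DMSO and T3 controls.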
smiles,measurement,setting,value
CNC(=O)ON=CC(C)(C)SC,AC50,[1],active: 25 µM
c1ccc(C[n+]2cccc3ccccc32)cc1,AC50,[1],active: 14.1 µM
O=C1C2(Cl)C3(Cl)C4(Cl)C(Cl)(Cl)C5(Cl)C3(Cl)C1(Cl)C5(Cl)C24Cl (centres undefined),AC50,[2],active: 2.56 µM and active: 622 nM
COC(=O)[C@H]1[C@H]2C[C@@H]3c4[nH]c5cc(OC)ccc5c4CCN3C[C@H]2C[C@@H](OC(=O)c2cc(OC)c(OC)c(OC)c2)[C@@H]1OC,AC50,[3],active: 1.18 µM
Clc1ccc(COC(Cn2ccnc2)c2ccc(Cl)cc2Cl)cc1 (centres undefined),AC50,AR (gene 367),active: 0.172 µM
N[C@@H](Cc1ccc(Oc2cc(I)c(O)c(I)c2)c(I)c1)C(=O)O,AC50,[4],active: 0.423 µM
same,AC50,THRA (gene 7067),active: 0.835 µM
same,AC50,THRB (gene 7068) [5],active: 0.739 µM
same,AC50,THRB (gene 7068) [6],active: 1.5 µM
